Test [1] deals with T1, BIR3 domain of XIAP (Homo sapiens, UniProt P98170).
T1 construct: Recombinant XIAP-BIR3 (residues 238-358); GST (N, cleaved yes); made in house; host or cells: E. coli
Kind of test: Fluorescence displacement assay: AVPC-badan displaced from BIR3 by test tetrapeptide (typical assay, Tables 1 and 2). The format is binding, mammalian. As to conditions: for Krelative: relative equilibrium constant for displacement of AVP-dye, larger = greater affinity for BIR3; for binding to BIR3 (in words): ability to displace the AVP-dye. An excerpt: The ability to quickly assay small molecules for their effectiveness in disrupting protein-protein interactions is critical to the development of viable drug candidates. One aspect of the present invention comprises an assay to test the binding affinity of a library of tetrapeptide molecules for the BIR3 domain of an inhibitor of apoptosis protein (LAP), particularly the mammalian XIAP. The assay is based on a detectable label, preferably a fluorogenic dye molecule. In preferred embodiments, the fluorophore is attached to a tripeptide, AVP, whose sequence matches the N-terminal three residues of Smac. The general structure of this molecule, therefore, is AVP[X], wherein X is the fluorophore. The molecule is referred to herein as an “AVP-dye”. The AVP-dye packs into the groove of the BIR3, causing a large shift in emission maximum and intensity when the environment of the dye changes from water to the hydrophobic pocket of the protein. If a molecule (e.g. the native Smac protein or a tetrapeptide mimic) displaces the dye, then emission will shift back to the spectrum observed in water. Since the emission intensity is related to the binding of the tetrapeptide, the intensity can be used to estimate the equilibrium constant, K, for displacement of the AVP-dye by the tetrapeptide. The larger the equilibrium constant, the greater affinity the tetrapeptide has for the BIR3.
The aforementioned AVP-dye is used in an assay of test compounds that may, like the Smac tetrapeptide AVPI, bind to the BIR3 domain of XIAP, thereby relieving XIAP-mediated suppression of apoptosis. This is a high-throughput, cell-free assay, that is assembled as follows. A protein comprising the BIR3 domain of an IAP is placed in an assay medium comprising a suitable buffer, as described above. Preferably, this is a recombinant protein comprising the BIR3 domain, but a full IAP protein also may be used. An aliquot of the AVP-dye is added to the reaction mixture, in the presence of the test compound. Controls comprise the BIR3 and the dye in the absence of the test compound and, optionally, BIR3 and the dye in the presence of the naturally occurring tetrapeptide, AVPI. […] Alternatively, a emission spectrum is measured at the selected excitation wavelength. In one type of measurement, the test compound is added and an emission spectrum is measured by scanning from, e.g., 460-480 nm. In another type of measurement, the emission intensity at a particular wavelength, e.g., 470 nm, is measured. […] Thus, the binding affinity of the test compound may be calculated as a function of its ability to displace the dye from the BIR3 domain, according to the following calculation: [formula]
Stock solution of badan, BIR3, and buffer were mixed: 2.5 ml of badan, 1.75 ml BIR3, and 15.25 ml of buffer were mixed in a glass vial which had been chilled to 4° C. Added 390 μL of the stock solution to 50 wells in the pre-chilled 96 well plate (wells A1-E2).
Stock solution of badan and buffer were mixed: 150 μL badan and 1020 μL of buffer were mixed in a small glass vial (also chilled) and added to 3 wells on the plate in 390 μL aliquots (F1-F3).
The 96 well plate was stored over ice in an insulated bucket while the emission spectra of the samples were taken. Fifty μL of the appropriate test solution (or water, for the control experiments) was added with a micropipet, the solution mixed with a Pasteur pipet before adding the sample to the fluorescence cuvette. While one sample was being scanned, the cuvette from the previous scan was washed with EtOH and then next sample was prepared.

By UniProt entry, the sequences of proteins in these tests, tags left out. Residues count along the entry.
UniProt P98170, 238-358: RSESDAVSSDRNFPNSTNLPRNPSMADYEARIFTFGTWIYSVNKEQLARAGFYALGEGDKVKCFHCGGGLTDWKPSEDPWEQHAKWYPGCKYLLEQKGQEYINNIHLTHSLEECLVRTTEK

Test [2] deals with T2, BIR3 domain of XIAP (recombinant XIAP-BIR3, residues 238-358) (Homo sapiens, UniProt P98170).
T2 construct: Recombinant XIAP-BIR3 (residues 238-358); GST (N, cleaved yes); made in house; host or cells: E. coli
Kind of test: Fluorescence-based competition assay of tetrapeptide libraries (Example 1). As to conditions: discussion of Table 4. The format is binding, mammalian. An excerpt:
Expression and Purification of BIR3. […] The soluble fraction of the GST-BIR3 in the E. coli lysate was purified over a glutathione sepharose column, and further purified by anion exchange chromatography (Mono-Q, Amersham Biosciences). The fusion protein was cleaved by thrombin, and the GST portion was removed by the glutathione sepharose column. The BIR3 protein was further purified over a gel filtration column (Superdex 30, Amersham Biosciences).
Fluorescence Experiments. Luminescence spectra were recorded using a Photon Technologies, Inc. fluorometer with a Xe arc lamp and a PMT detector. […] The buffer used in all of the fluorescence experiments was 50 mM potassium phosphate, 100 mM NaCl, 2 mM 1,4-dithio-DL-threitol (DTT), pH 7.
Assay of Tetrapeptide Libraries. The samples were prepared in a 96 well plate lined with glass tubes, to prevent adsorption of the dye to plastic. The plate was stored on ice in the dark between measurements. […] 390 μL of this stock solution were added to 50 wells of the 96 well plate. 50 μL of the test tetrapeptide solutions were added and mixed immediately prior to taking the emission spectra. The final solutions were 5 μM in both badan and BIR3, and approximately 20-30 μM in the tetrapeptide solutions. […] 50 μL of water was added to these wells, again as controls, to determine the intensity of the unbound dye.
The binding of various tetrapeptide mimics to the BIR3 domain of XIAP was determined using a fluorescence-based competition assay. The assay is based on an environment-sensitive fluorogenic dye molecule, badan. Badan is a dye whose sensitivity to environmental changes has previously been used to probe protein binding interactions. […] As the dye is displaced from the binding pocket by the test molecule, the emission shifts back towards the aquated spectrum.

Test [3] addresses Recombinant XIAP-BIR3 (residues 238-358) (UniProt P98170). Kind of test: fluorescence competition, displacement of AVPC-badan from BIR3.

Non-standard residues stand in square brackets, D forms with d. Residues, ends and D or L forms follow the SMILES beside them. ξ: configuration not given here. ξAbu = CCC(N)C(=O)O

In test [1], `CC[C@H](C)[C@H](NC(=O)[C@@H]1CCCN1C(=O)[C@H](Cc1c[nH]cn1)NC(=O)[C@H](C)N)C(N)=O` [AHPI] (H-AHPI-NH2; N-terminus and C-terminus assumed) gave a Krelative of 2.2917. Moreover, the “binding affinity for BIR3 (in words)” value in test [2] is given as “high affinity”. On to `CC[C@H](C)[C@H](NC(=O)[C@@H]1CCCN1C(=O)[C@H](CCCNC(=N)N)NC(=O)[C@H](C)N)C(N)=O` [ARPI] (H-ARPI-NH2; N-terminus and C-terminus assumed), for which, in test [1], the “binding to BIR3 (in words)” value is on record as “strong binding” and the Krelative is given as 4.3126. For the same molecule, the “binding affinity for BIR3 (in words)” value in test [2] is “high affinity”. With `CC(C)[C@H](NC(=O)[C@H](C)N)C(=O)N[C@@H](C)C(=O)N[C@@H](Cc1ccccc1)C(N)=O` [AVAF], the “binding to BIR3 (in words)” value in test [1] was “bound strongly”. The “binding affinity for BIR3 (in words)” value in test [2] is on record as “diminished by greater than a factor of ten relative to that observed for the AVPF”.

As for `CC(C)[C@H](NC(=O)[C@H](C)N)C(=O)N1CCC[C@H]1C(=O)N[C@@H](CS)C(N)=O` [AVPC, Ala-Val-Pro-Cys-NH2], the “binding affinity for BIR3 (in words)” value in test [2] is listed as “greater than that of the AVPC-badan”.

For the molecule `CC(C)[C@H](NC(=O)[C@H](C)N)C(=O)N1CCC[C@H]1C(=O)N[C@@H](CCCCN)C(N)=O` [AVPK], the “binding to BIR3 (in words)” value in test [1] is “bound BIR3 only weakly”. In the case of `CC(C)[C@H](NC(=O)[C@H](C)N)C(=O)N1CCC[C@H]1C(=O)N[C@@H](Cc1c[nH]c2ccccc12)C(N)=O` [AVPW] (H-AVPW-NH2; N-terminus and C-terminus assumed), in test [1], the “binding to BIR3 (in words)” value is “binding at a strength equivalent to that of the naturally-occurring Smac peptide” and the Krelative turned out to be 23.1330. For the same molecule, the “binding affinity for BIR3 (in words)” value in test [2] is recorded as “closely followed”. On the same counts, the results for `CC(C)[C@H](NC(=O)[C@H](C)N)C(=O)N1CCC[C@H]1C(=O)N[C@@H](Cc1ccc(O)cc1)C(N)=O` [AVPY] (H-AVPY-NH2; N-terminus and C-terminus assumed) are “binding at a strength equivalent to that of the naturally-occurring Smac peptide”, 2.5442 and “binding affinity slightly greater than the natural analog”. As for `CCC(N)C(=O)N[C@H](C(=O)N1CCC[C@H]1C(=O)N[C@H](C(N)=O)[C@@H](C)CC)C(C)C` (some centres unmarked) [AbuVPI] (H-[ξAbu]VPI-NH2; N-terminus and C-terminus assumed), the Krelative in test [1] stood at 3.0455. Turning to `CC[C@H](C)[C@H](NC(=O)[C@@H]1CCCN1C(=O)[C@@H](NC(=O)CN)C(C)C)C(N)=O` [GVPI], the “binding affinity for BIR3 (in words)” value in test [2] is listed as “greatly diminished”.

Turning to `CC[C@H](C)[C@H](NC(=O)[C@@H]1CCCN1C(=O)[C@@H](NC(=O)[C@@H](N)CO)C(C)C)C(N)=O` [SVPI], the “binding affinity for BIR3 (in words)” value in test [2] is given as “diminished binder”. For “AIAY: tetrapeptide, SEQ ID NO:17; sequence of a Drosophila homolog of Smac (Synthetic tetrapeptide sequence)”, in test [1], the “binding to BIR3 (in words)” value is listed as “bound strongly”. Consider AbuVPI (peptide), for which, in test [3], the Kd was 0.24 µM.

These data come from patent US20050176649A1, “Iap binding peptides and assays for identifying compounds that bind iap” (priority 2001, published 2005).
